According to patent publication US20150314007A1, “LINKER-PAYLOAD MOLECULE CONJUGATES” (GLYKOS FINLAND OY, priority 2012, published 2015):

Key:
[1] = tested on: subcutaneous SKOV-3 xenograft; assay: In vivo efficacy of anti-EGFR antibody-drug conjugate in xenograft nude mice
Description: Human cancer cell line SKOV-3 (ovarian adenocarcinoma) was implanted s.c. (3×10^6 cells in 50% matrigel) in one flank of female, adult Harlan HSD:athymic nude Foxn1^nu mice. The first dose of the test or control substances was administered when the tumors had grown to average volume of 100 mm^3 (4-8 mm diameter). Tumor length (L) and width (W) were recorded in mm. Tumor volumes (V) in mm^3 were calculated according to the formula V=½L×W^2. Mice with different sized tumors were equally divided into study groups to obtain homogenous groups.
Test and control substances were administered i.v. three times at seven days' intervals (Table 4).

[2] = tested on: subcutaneous SKOV-3 xenograft; assay: In vivo efficacy of anti-HER2 antibody-drug conjugates in xenograft nude mice; conditions: 10 mg/kg i.v. three times at seven days' intervals
[3] = tested on: head-and-neck squamous cell carcinoma cell line HSC-2 (EGFR+); assay: In vitro cytotoxicity, HSC-2 cell viability; format: cell-based, Human
[4] = tested on: multidrug-resistant colorectal carcinoma cell line LS513 (EGFR+); assay: In vitro cytotoxicity, LS513 cell viability; format: cell-based, Human; conditions: LS513 multi-drug resistant cells, FIG. 2C
Description: The compounds were assayed 1-2 times in triplicate.

[5] = tested on: Human ovarian cancer cell line SKOV-3; assay: In vitro cytotoxicity, SKOV-3 cell viability (PrestoBlue); conditions: concentration range wherein viability falls to 50%, lower ends of ranges printed in pM

anti-EGFR1 ADC: N-(6-propargyl-D-galactosyl)-dolastatin 10 conjugated to NHS-PEG4-N3-modified CHO cell produced cetuximab
tumor size (tumor volume) ([1]; 10 mg/kg i.v. three times at seven days' intervals, FIG. 4): Smallest tumors
anti-tumor activity in vivo ([1]; 10 mg/kg i.v. x3, subcutaneous SKOV-3 xenograft nude mice): showed anti-tumor activity

anti-HER2 ADC DAR=1: N-(6-propargyl-D-galactosyl)-dolastatin 10 conjugated to NHS-PEG4-N3-modified CHO cell produced trastuzumab, drug-antibody ratio 1
tumor growth inhibition compared with unconjugated anti-HER2 antibody and control treatment [2]: inhibited tumor growth more

anti-HER2 ADC DAR=3: N-(6-propargyl-D-galactosyl)-dolastatin 10 conjugated to NHS-PEG4-N3-modified CHO cell produced trastuzumab, drug-antibody ratio 3
tumor growth inhibition compared with unconjugated anti-HER2 antibody and control treatment [2]: inhibited tumor growth more
anti-tumor activity (tumor volume) ([2]; FIG. 3A): highest anti-tumor activity among the tested compounds

cetuximab-MODO
effectiveness compared with omalizumab antibody-drug conjugate or unconjugated cetuximab ([3]; HSC-2, FIG. 2A, concentrations normalized to monomethyldolastatin 10 content): more effective
effectiveness compared with unconjugated linker-dolastatin compound 12 ([3]; HSC-2, FIG. 2B): more effective
effectiveness compared with cetuximab-VC-MODO [4]: more effective

trastuzumab-MODO: trastuzumab-PEG4-N3 clicked with N-(6-propargyl-D-galactosyl)-dolastatin 10
IC50 [5]: 10 to 1000 pM
